{
  "source": "patent US9943613B2",
  "about": "“DAB-4 linked nitroxide citrate, useful as MRI contrast agent” (priority 2012, dated 2018)",
  "key": {"rabbit stifle joints": {"tested_on": "rabbit stifle joints", "assay": "Single intra-articular injection toxicity model in rabbit stifles", "from_the_text": "Rabbits were euthanized two weeks post-injection. Both left and right stifles were harvested and immediately fixed in 10% neutral buffered formalin, then set for histological processing. Five-micron thick slides from each knee were stained with Hematoxylin & Eosin and Safranin-O."}, "[1]": {"tested_on": "RES-LTC chondrosarcoma cell line", "assay": "Modified MTT assay for metabolic activity", "format": "cell-based", "conditions": "1-10 mM, 48 hour timepoint, FIG. 3", "procedure": "Assays: Modified MTT assay for metabolic activity (absorbance).\nAssay data analysis: Expressed as % of the positive controls for MTT and picogreen. MTT absorbance measures then normalized to the μgDNA/ml generated by the picogreen assay.\nCell cultures: RES-LTC chondrosarcoma cell line. Expresses hyaline-like chondrocyte phenotype and reliably produces large, homogeneous cell populations\nCell cultures in 96 well plates. Each compound, at a fixed concentration, was added in triplicate for each assay. MTT and picogreen assays in separate plates (assays interfere with each other). All plates treated together. Assays run at 48 hour timepoint. Microscopy performed to confirm findings."}, "[2]": {"conditions": "compared with dendrimers containing more nitroxyl groups; cited from earlier work"}},
  "data": [
    {"substance": "Citric Acid Salt of DAB-4 Linked Nitroxide [DAB-4 linked nitroxide citrate]", "values": [
      {"measurement": "clinical signs of inflammation or lameness", "setting": "rabbit stifle joints; single intra-articular injection, two weeks observation", "value": "No animals presented clinical signs of inflammation or lameness"},
      {"measurement": "Modified Mankin scoring (structural damage / joint degeneration)", "setting": "rabbit stifle joints; two weeks post-injection, histology, FIG. 6", "value": "did not uncover any signs of structural damage and/or degenerative response"},
      {"measurement": "MTT metabolic activity", "setting": "[1]", "value": "more metabolic activity than the maleate or tartrate salts"},
      {"measurement": "relaxivity", "setting": "[2]", "value": "lower relaxivity than such dendrimers containing more nitroxyl-groups"}
    ]}
  ]
}
